Data on five molecules can be found in patent publication US20240018206A1 (BEIJING VDJBIO, published 2024).

T1: IL-1 receptor (IL-1R1) on A375.s2 cells (UniProt P14778 18-569, limits assumed)
T1 sequence (looked up): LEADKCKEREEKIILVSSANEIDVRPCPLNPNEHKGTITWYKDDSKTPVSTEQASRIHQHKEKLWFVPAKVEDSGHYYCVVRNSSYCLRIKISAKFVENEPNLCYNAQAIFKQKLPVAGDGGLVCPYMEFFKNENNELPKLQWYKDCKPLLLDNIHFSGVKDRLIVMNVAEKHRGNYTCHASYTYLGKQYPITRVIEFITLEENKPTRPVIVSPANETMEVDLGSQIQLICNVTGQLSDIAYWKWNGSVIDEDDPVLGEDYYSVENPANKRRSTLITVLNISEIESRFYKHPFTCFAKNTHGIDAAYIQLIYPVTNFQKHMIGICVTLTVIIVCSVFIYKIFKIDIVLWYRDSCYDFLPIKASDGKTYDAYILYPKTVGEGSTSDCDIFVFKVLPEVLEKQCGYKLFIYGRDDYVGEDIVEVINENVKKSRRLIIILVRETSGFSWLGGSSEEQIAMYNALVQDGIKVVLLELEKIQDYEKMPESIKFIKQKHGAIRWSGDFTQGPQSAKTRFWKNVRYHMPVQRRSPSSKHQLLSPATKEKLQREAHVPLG

T2: IL-1 receptor (IL-1R1), the receptor of the SPR assay (UniProt P14778 18-332, limits assumed)
T2 construct: also called fixed receptor
T2 sequence (looked up): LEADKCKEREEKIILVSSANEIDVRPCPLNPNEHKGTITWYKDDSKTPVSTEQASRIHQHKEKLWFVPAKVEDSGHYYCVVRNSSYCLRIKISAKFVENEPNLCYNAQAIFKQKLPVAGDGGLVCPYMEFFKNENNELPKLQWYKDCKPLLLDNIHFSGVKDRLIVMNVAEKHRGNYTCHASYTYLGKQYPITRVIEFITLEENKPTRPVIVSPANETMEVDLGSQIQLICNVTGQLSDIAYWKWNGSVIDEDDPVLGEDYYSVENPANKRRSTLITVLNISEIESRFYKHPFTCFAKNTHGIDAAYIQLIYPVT

B1: IL-1RN R5T D74N-Fc (Fc fusion)
chain: RPSGTKSSKMQAFRIWDVNQKTFYLRNNQLVAGYLQGPNVNLEEKIDVVPIEPHALFLGIHGGKMCLSCVKSGNETRLQLEAVNITDLSENRKQDKRFAFIRSDSGPTTSFESAACPGWFLCTAMEADQPVSLTNMPDEGVMVTKFYFQEDEGGGGSGGGGSGGGGSESKYGPPCPPCPAPEFLGGPSVFLFPPKPKDTLMISRTPEVTCVVVDVSQEDPEVQFNWYVDGVEVHNAKTKPREEQFNSTYRVVSVLTVLHQDWLNGKEYKCKVSNKGLPSSIEKTISKAKGQPREPQVYTLPPSQEEMTKNQVSLTCLVKGFYPSDIAVEWESNGQPENNYKTTPPVLDSDGSFFLYSRLTVDKSRWQEGNVFSCSVMHEALHNHYTQKSLSLSLGK
B2: IL-1RN R14T D74N-Fc (Fc fusion)
chain: B1 chain with T5R, R14T
B3: IL-1RN R5T R14T-Fc (Fc fusion)
chain: B1 chain with R14T, N74D
B4: IL-1RN R5T-Fc (Fc fusion)
chain: B1 chain with N74D
B5: IL-1RN R14T-Fc (Fc fusion)
chain: B1 chain with T5R, R14T, N74D

What is called Kd is the concentration at which binding is half-saturated. Low values mean tighter binding, high ones weaker binding. Usually koff stands for the first-order rate constant of dissociation. Low values mean a long-lived complex, high ones a short-lived complex. In general, kon refers to the rate constant with which the complex forms. Read a low kon as slow association.

Positions count from the first letter of the chain named. Names may count otherwise.

The first test has as its target T1, IL-1 receptor (IL-1R1) on A375.s2 cells. Kind of test: cell-based or functional assay.
On to B1, for which the “IC50(µg/ml), inhibition of IL-1β induced A375.s2 apoptosis (MTS, 490 nM)” value (shortened to “IC50(µg/ml), inhibition”) was found to be 1.38 µg/mL.

Consider B2, for which the “IC50(µg/ml), inhibition” value came out at 1.45 µg/mL.

Take B3: the “IC50(µg/ml), inhibition” value was 3.5 µg/mL.

In the case of B4, the “IC50(µg/ml), inhibition” value worked out at 3.08 µg/mL.

B5: the “IC50(µg/ml), inhibition” value is 2.67 µg/mL.

In another test the target is T2, IL-1 receptor (IL-1R1), the receptor of …. Kind of test: SPR, BIAcore 3000, 25 C, analyte 1.2 to 100 nM. The procedure: All SPR measurements are performed on a BIAcore 3000 instrument (GE Biosciences, Piscataway, N.J.). BIAcore software-BIAcore 3000 control software V3.2 is used to operate and control the BIAcore 3000 instrument. SPR data from the BIAcore 3000 instrument are analyzed using evaluation software V4.1, and the data are plotted using Graph Pad Prism software version 5. […] The fusion protein shown is used as a ligand for constructing the reference channel of a chip. The analyte IL-1RN-Fc bound to the fixed receptor is measured, with a concentration of 1.2 to 100 nM (3-fold dilution). Each sample is injected at a flow rate of 30 μL/min for 3 minutes to bind to the fusion protein bound to the chip. Next, the binding buffer without analyte is passed through the chip at the same flow rate to dissociate the bound analyte. 500 s later, the regeneration solution (1M formic acid) is injected to remove the residual binding analyte. The data are analyzed using the Kinetics Guidelines and the manual fitting program attached to BiaEvaluation software V4.1.
On the technique in general: SPR reads the build-up and loss of mass on a sensor chip optically.
For the molecule B1, the Kd is 0.097 nM, the “Relative Affinity” value is 12.1 fold (reference IL-1RN-Fc), the koff was determined as 1.83e-05 s⁻¹ and the kon amounted to 189000 M⁻¹ s⁻¹.

Take B2: the affinity, expressed as Kd, was 0.107 nM; the “Relative Affinity” value is 11 fold (reference IL-1RN-Fc); the koff worked out at 1.98e-05 s⁻¹; the kon was 185000 M⁻¹ s⁻¹.

Turning to B3, binding was characterised by a dissociation constant (Kd) of 0.26 nM, the “Relative Affinity” value is 4.5 fold (reference IL-1RN-Fc), the koff turned out to be 4.65e-05 s⁻¹ and the kon was 179000 M⁻¹ s⁻¹.

With B4, the Kd was 0.334 nM, the “Relative Affinity” value is 3.5 fold (reference IL-1RN-Fc), the koff was determined as 5.75e-05 s⁻¹ and the kon came out at 172000 M⁻¹ s⁻¹.

Take B5: the Kd worked out at 0.476 nM, the “Relative Affinity” value is 2.5 fold (reference IL-1RN-Fc), the koff came to 8.05e-05 s⁻¹ and the kon is 169000 M⁻¹ s⁻¹.
